{
  "sequences": {"note": "The chains behind the UniProt entries cited, without tags or fusion partners. Residues count along the entry.", "UniProt P06213, 28-1382": "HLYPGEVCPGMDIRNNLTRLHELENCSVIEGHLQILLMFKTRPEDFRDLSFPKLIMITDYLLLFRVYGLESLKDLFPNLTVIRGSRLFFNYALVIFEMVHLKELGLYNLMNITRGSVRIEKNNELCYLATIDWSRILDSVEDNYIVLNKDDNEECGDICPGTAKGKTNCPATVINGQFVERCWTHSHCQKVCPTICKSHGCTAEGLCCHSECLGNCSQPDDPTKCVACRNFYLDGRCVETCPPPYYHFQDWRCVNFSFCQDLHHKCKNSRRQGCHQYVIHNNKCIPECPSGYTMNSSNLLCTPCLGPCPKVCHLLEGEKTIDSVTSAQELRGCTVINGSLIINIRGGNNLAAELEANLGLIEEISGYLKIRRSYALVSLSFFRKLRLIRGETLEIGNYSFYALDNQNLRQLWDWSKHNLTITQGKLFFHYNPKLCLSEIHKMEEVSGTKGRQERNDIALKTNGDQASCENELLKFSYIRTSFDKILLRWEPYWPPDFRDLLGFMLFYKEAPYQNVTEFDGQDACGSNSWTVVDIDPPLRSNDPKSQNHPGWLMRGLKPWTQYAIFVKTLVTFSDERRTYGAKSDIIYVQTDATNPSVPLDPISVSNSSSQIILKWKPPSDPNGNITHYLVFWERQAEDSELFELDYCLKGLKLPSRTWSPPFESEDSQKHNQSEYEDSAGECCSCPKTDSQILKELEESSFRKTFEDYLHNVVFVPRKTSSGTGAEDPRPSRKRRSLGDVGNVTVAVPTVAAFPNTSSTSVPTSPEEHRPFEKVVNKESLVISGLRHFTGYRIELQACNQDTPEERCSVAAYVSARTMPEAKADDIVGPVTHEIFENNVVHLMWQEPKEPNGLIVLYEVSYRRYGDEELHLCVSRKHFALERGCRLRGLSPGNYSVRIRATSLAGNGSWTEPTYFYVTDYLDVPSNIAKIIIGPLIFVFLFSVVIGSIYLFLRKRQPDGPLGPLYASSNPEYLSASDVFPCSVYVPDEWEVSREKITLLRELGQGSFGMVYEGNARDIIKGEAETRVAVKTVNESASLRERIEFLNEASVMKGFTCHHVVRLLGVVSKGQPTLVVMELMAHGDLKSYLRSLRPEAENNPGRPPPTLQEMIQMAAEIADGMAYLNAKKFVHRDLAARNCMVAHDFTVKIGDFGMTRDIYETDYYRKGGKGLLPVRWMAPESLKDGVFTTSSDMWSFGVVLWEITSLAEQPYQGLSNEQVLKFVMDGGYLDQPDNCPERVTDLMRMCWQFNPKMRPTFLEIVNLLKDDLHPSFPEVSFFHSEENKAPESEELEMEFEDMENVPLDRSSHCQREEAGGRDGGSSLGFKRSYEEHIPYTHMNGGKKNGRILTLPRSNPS", "UniProt P22303, 32-614": "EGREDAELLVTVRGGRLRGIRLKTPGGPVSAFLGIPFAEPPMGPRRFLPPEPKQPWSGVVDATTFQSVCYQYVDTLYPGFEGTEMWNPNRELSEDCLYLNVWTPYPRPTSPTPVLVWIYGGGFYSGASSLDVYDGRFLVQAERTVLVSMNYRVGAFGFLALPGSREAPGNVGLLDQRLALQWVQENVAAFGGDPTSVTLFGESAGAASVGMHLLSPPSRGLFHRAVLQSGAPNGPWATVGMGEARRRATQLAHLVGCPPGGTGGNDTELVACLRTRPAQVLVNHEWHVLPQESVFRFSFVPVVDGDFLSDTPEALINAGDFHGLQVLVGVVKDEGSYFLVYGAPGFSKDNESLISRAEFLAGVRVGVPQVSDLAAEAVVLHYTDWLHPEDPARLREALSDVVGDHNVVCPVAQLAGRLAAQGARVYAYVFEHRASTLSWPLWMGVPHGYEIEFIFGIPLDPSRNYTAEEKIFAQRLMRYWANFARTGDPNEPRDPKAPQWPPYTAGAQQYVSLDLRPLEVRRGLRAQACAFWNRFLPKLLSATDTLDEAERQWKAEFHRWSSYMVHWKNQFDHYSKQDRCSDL"},
  "source": "paper doi:10.1101/2025.06.17.660082v1",
  "about": "(bioRxiv, 2025)",
  "key": {"DIO mice": {"system": "DIO mice", "assay": "Acute treatment of DIO mice, plasma parameters and ex vivo tissue analysis", "type": "in vivo, mouse"}, "[1]": {"molecular_target": "insulin receptor (INSR) kinase (Homo sapiens, UniProt P06213)", "assay": "Functional and binding panel 87 assays: IRK", "type": "biochemical", "settings": "read-out: inhibition of control specific binding"}, "white hMADS cells": {"system": "white hMADS cells", "assay": "Lipolysis assay", "type": "cell-based, human"}, "LRP1": {"system": "LRP1", "assay": "Surface plasmon resonance, LRP1 to SP16", "type": "binding", "settings": "Supplementary Fig. 7b-7e"}, "white hMADS": {"system": "white hMADS", "assay": "Seahorse oxygen consumption", "type": "cell-based, human"}, "[2]": {"system": "CRE-Luc2P empty cells (no GIPR receptor overexpression)", "assay": "CRE-Luc2P reporter assay, empty cells without receptor overexpression", "type": "cell-based"}, "[3]": {"molecular_target": "acetylcholinesterase (AChE) (Homo sapiens, UniProt P22303)", "assay": "Functional and binding panel 87 assays: acetylcholinesterase", "type": "biochemical"}, "[4]": {"settings": "artificial 3D BBB system and BBB in mice following intranasal delivery; cited from earlier work"}, "[5]": {"system": "insulin receptor signaling pathway in hMADS", "assay": "Insulin signalling", "type": "cell-based, human"}, "hMADS cells": {"system": "hMADS cells", "assay": "mRNA expression by RT-qPCR in hMADS", "type": "cell-based, human"}, "3T3-L1 cells": {"system": "3T3-L1 cells", "assay": "Insulin signalling", "type": "cell-based, mouse", "settings": "10 nM insulin"}, "[6]": {"settings": "30 µM, 10 nM insulin, 15 min + 15 min"}},
  "data": [
    {"smiles": "CCCC[C@H](NC(=O)[C@H](CC(C)C)NC(=O)[C@H](Cc1ccccc1)NC(=O)[C@@H](NC(=O)[C@H](Cc1ccccc1)NC(=O)[C@@H]1CCCN1C(=O)[C@H](CCCCN)NC(=O)[C@H](CC(N)=O)NC(=O)[C@H](Cc1ccccc1)NC(=O)[C@H](CCCCN)NC(=O)[C@@H](NC(C)=O)C(C)C)C(C)C)C(=O)N[C@H](C(=O)N[C@@H](CCC(=O)O)C(=O)N[C@@H](CCC(N)=O)C(=O)N[C@@H](CC(N)=O)C(=O)N[C@H](C(=O)N[C@@H](CCCCN)C(N)=O)[C@@H](C)O)[C@@H](C)CC", "note": "[SP16]", "values": [
      {"measurement": "plasma FFA compared to vehicle", "setting": "DIO mice; 15-min treatment, i.p.", "result": "higher level of plasma FFA"},
      {"measurement": "plasma leptin compared to vehicle", "setting": "DIO mice; 15-min treatment, i.p.", "result": "lower leptin level"},
      {"measurement": "FFA, glycerol and cAMP in eWAT ex vivo", "setting": "DIO mice; 15 min after i.p.", "result": "trend for elevated levels"},
      {"measurement": "pAKT in eWAT", "setting": "DIO mice; 15 min after i.p.", "result": "significant increase"},
      {"measurement": "FFA, glycerol, cAMP and pAKT in iWAT, iBAT and the liver", "setting": "DIO mice; at the tested dose", "result": "failed to significantly affect"},
      {"measurement": "inhibition at 10 µM", "setting": "[1]", "result": 69.3, "unit": "%"},
      {"measurement": "FFA release in hMADS treated with GIPR siRNA vs siNC", "setting": "white hMADS cells; GIPR knockdown approximately 40%", "result": "significantly reduced"},
      {"measurement": "lipolytic phenotype after β-adrenergic receptor antagonism with propranolol", "setting": "white hMADS cells; hMADS pretreated with propranolol", "result": "not blocked by propranolol"},
      {"measurement": "involvement of LRP1 in lipolysis", "setting": "white hMADS cells; hMADS, LRP antagonist (RAP) and LRP1 siRNA knockdown", "result": "does not induce lipolysis through LRP1"},
      {"measurement": "FFA release after pretreatment with adenylyl cyclase inhibitor SQ22536", "setting": "white hMADS cells; white hMADS", "result": "inhibited"},
      {"measurement": "binding to LRP1 by SPR", "setting": "LRP1", "result": "could confirm"},
      {"measurement": "proton leak, SP16 vs SP16 NC", "setting": "white hMADS; acute treatment, 10 µM, white hMADS", "result": "does not significantly differ"},
      {"measurement": "OCR after 24-h and 3 x 24-h treatment", "setting": "white hMADS; hMADS", "result": "does not result in an increase in OCR"},
      {"measurement": "fatty acid oxidation test, OCR vs SP16 NC", "setting": "white hMADS; with palmitate-BSA", "result": "no significant difference"},
      {"measurement": "cAMP induction on empty cells", "setting": "[2]", "result": "no cAMP induction"},
      {"measurement": "inhibition at 10 µM", "setting": "[3]", "result": 79.9, "unit": "%"},
      {"measurement": "passage of blood-brain barrier", "setting": "[4]", "result": "demonstrated to traverse"},
      {"measurement": "inhibitory effect on pINSR/pAKT at 100 nM insulin", "setting": "[5]", "result": "diminished"},
      {"measurement": "inhibition of pINSR and pAKT", "setting": "[5]; 10 µM, 10 nM insulin", "result": "does not exhibit any inhibition"},
      {"measurement": "inhibition of pAKT compared to SP16 NC", "setting": "[5]; [6]", "result": "approximately 70%"},
      {"measurement": "inhibition of pINSR compared to SP16 NC", "setting": "[5]; [6]", "result": "approximately 70%"},
      {"measurement": "phosphorylation of AKT under basal conditions", "setting": "[5]; absence of insulin", "result": "does not modulate"},
      {"measurement": "PPARG1A expression", "setting": "hMADS cells; 4 h, 10 µM", "result": "significant upregulation"},
      {"measurement": "UCP1 mRNA levels", "setting": "hMADS cells; 4 h treatment", "result": "unchanged expression"},
      {"measurement": "expression of FASN", "setting": "hMADS cells; in the presence of 10 nM insulin, 24 h", "result": "significantly lower"},
      {"measurement": "inhibition of pINSR and pAKT in mouse adipocytes", "setting": "3T3-L1 cells", "result": "less pronounced inhibition"}
    ]}
  ]
}
